The target in the assay is cGMP-specific 3',5'-cyclic phosphodiesterase (Rattus norvegicus, UniProt O54735). As to the kind of experiment: Inhibitory concentration against phosphodiesterase 5 in rat fetal lung fibroblast (RFL-6) cells. It is filed as cell-based.

`Oc1c2c(nc3ccccc13)C(c1ccc3c(c1)CCO3)N(c1ncc(-c3ccccn3)cn1)C2` (stereo unspecified) showed an IC50 of 0.4 nM.

The record behind these values is ChEMBL document CHEMBL1142740, “Pyrroloquinolone PDE5 inhibitors with improved pharmaceutical profiles for clinical studies on erectile dysfunction” (J Med Chem, 2005).
